Key:
[1] = target: interaction between the AnxA2 N-terminus and S100A10 (Homo sapiens, UniProt P60903); experiment: Fluorescence screening assay (FRET competitive binding, Cy3-AnxA2(Ac1–14) peptide / Cy5-S100A10); settings: Table 1, 12 observations
Procedure: Assessment of compound activity was performed as described.[35] Briefly, a Cy5-labelled S100A10 tracer was developed and binding of a Cy3-labelled AnxA2(Ac1–14) peptide ligand was assessed using a fluorescence resonance energy transfer readout. Assays were carried out in Nunc black non-treated 384-well plates at 20 °C in 50 μL buffer C. All incubations were performed in quadruplicate. Compounds, peptide and buffer controls were added to the wells in a 10 μL volume in 5% DMSO. Cy5-labelled S100A10 tracer (407 nM) and Cy3-labelled AnxA2(Ac1–14) peptide ligand (1.33 μM) were pre-incubated for 5 min at 20 °C and 40 μL of the preformed complex was then added to the wells and mixed for 10 s to yield a final DMSO concentration of 1%. After 5 min incubation at 20 °C, readings were taken on a Perkin Elmer Envision plate reader by excitation at 488 nm and emission at 695 nm. Fluorescence resonance energy transfer (FRET) was calculated by subtracting the sum of the fluorescence emission of S100A10-Cy5 and AA2(1–14)-Cy3 individually from that measured for the co-incubated partners. Compound binding was calculated as percentage of non-treated control and data were analysed by non-linear regression (dose response—variable slope with bottom and top parameters fixed at 0% and 100%, respectively) using Graphpad Prism Software to determine the IC50 of binding (primary assay).

The chains behind the UniProt entries cited, without tags or fusion partners.
UniProt P60903, whole entry, species assumed: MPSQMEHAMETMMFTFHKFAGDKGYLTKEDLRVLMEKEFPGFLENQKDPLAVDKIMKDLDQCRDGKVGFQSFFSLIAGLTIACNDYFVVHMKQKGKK

[2] = target: T1, native complex between annexin A2 and S100A10 (Homo sapiens, UniProt P60903); experiment: Co-immunoprecipitation of AnxA2 with S100A10 (native complex) from cell lysates, Western blot; format: binding; settings: MDA-MB-231 cell lysates preincubated with compound or peptide; compared with vehicle
T1 construct: the native complex of the two full-length proteins, AnxA2 and S100A10; endogenous in cells; host or cells: MDA-MB-231 human breast cancer cells (lysate)
Procedure: In the presence of the isolated synthetic peptide AnxA2(1–14), the amount of AnxA2 in the S100A10 immunoprecipitate is reduced, due to it competing with the binding between native AnxA2 and S100A10.
Figure 5 Co-immunoprecipitation of AnxA2 with S100A10. S100A10 was immunoprecipitated from cell lysates and co-immunoprecipitation of AnxA2 was assessed by Western blotting. The amount of AnxA2 in the S100A10 immunoprecipitate was quantified using Scion Image Software and expressed as a percentage of the vehicle-treated sample (n = 4 ± SE).
Human MDA-MB-231 breast cancer cells were extracted in 50 mM Tris–HCl (pH 8.0) buffer containing 150 mM sodium chloride and 1% (v/v) NP-40. Lysates were centrifuged at 17,000×g and incubated at 4 °C for 16 h with 10 μL S100A10 antibody (BD transduction Laboratories) and 50 μL protein A/G agarose (Alpha Diagnostic International Inc). […] The supernatant was then analyzed by SDS–PAGE after which the gel was transferred to a nitrocellulose filter. […]

With `CC[C@H](C)[C@H](NC(=O)[C@H](CCC(=O)O)NC(=O)[C@H](Cc1c[nH]cn1)NC(=O)[C@@H](NC(=O)[C@@H](NC(=O)[C@H](CO)NC(C)=O)[C@@H](C)O)C(C)C)C(=O)N[C@@H](CC(C)C)C(=O)N[C@@H](CS)C(=O)N[C@@H](CCCCN)C(=O)N[C@@H](CC(C)C)C(=O)N[C@@H](CO)C(=O)N[C@@H](CC(C)C)C(=O)N[C@@H](CCC(=O)O)C(=O)NCC(=O)O` [Peptide, reference compound] the IC50 [1] was 1200 nM and the “amount of AnxA2 in the S100A10 immunoprecipitate” value [2] was “reduced”.

— PMC4182301, “Design, synthesis and SAR exploration of tri-substituted 1,2,4-triazoles as inhibitors of the annexin A2–S100A10 protein interaction” (Bioorganic & Medicinal Chemistry, 2014)
